# Assay results published in PubChem BioAssay AID1214 (Sanford-Burnham Center for Chemical Genomics, 2008).
# Sequences of proteins named here, by UniProt entry; tags and fusion partners are left off.
# UniProt P34949, whole entry: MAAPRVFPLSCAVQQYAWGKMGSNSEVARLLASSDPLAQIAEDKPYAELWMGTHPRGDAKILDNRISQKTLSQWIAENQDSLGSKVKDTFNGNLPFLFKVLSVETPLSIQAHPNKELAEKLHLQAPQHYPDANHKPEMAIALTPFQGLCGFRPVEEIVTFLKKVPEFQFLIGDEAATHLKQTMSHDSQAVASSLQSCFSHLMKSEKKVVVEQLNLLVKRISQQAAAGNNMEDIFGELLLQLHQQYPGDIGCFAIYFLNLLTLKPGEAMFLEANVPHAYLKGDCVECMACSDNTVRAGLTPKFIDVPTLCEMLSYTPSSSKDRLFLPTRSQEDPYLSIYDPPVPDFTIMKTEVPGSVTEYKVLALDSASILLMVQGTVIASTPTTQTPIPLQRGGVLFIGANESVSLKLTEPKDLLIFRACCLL
# The list shows a part of the results, in another mix than the full data. Some results for these compounds are left out of this collection, so the calls shown say nothing about other tests. Active and inactive are the calls of the source.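 Rule for the calls: active = activation factor of 2 or more at 20 µM, relative to plate controls; inactive = the rest.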
# Biological target: Mannose-6-phosphate isomerase (Homo sapiens) (UniProt P34949)
# Test: MPI enzyme activity enhancement – biochemical, fluorescence intensity, near-Km mannose 6-phosphate, primary screen (AID 1214)
# Details: purified human PMI, coupled resazurin fluorescence, 20 min, at 20 µM; stronger effect = higher value, 1 = vehicle control, 0 substrate-free wells
row,SMILES,activation factor
1,Cc1ccccc1C(=O)NCC1(N2CCCCC2)CCCCC1,inactive
2,CN(C)C1CCCC1OC(=O)C(O)(c1ccccc1)c1ccccc1 (centres undefined),inactive
3,CCN1CCCC(OC(=O)C2(O)c3ccccc3C=Cc3ccccc32)C1 (centres undefined),inactive
4,C=CCN1CCN(CCOC(=O)C(O)(c2ccccc2)c2ccccc2)CC1,inactive: 1.2
5,O=C(NCC1(N2CCCCC2)CCCCC1)c1cc([N+](=O)[O-])ccc1Cl,inactive: 1.1
6,CC(C)N1C(=O)CC2(CCN(CCOC(=O)C(O)(c3ccccc3)c3ccccc3)CC2)C1=O,inactive
7,O=C(OC1CN2CCC1CC2)C(CO)(c1ccccc1)c1ccccc1 (centres undefined),inactive
8,CN(C)c1cccc(C(=O)NCC2(N(C)C)CCCCC2)c1,inactive: 0.9
9,COc1cccc(C(=O)NCC2(N3CCCCC3)CCCCC2)c1,inactive: 0.9
